Patent US9409892B2, “4-hydroxy-isoquinoline compounds as HIF hydroxylase inhibitors” (FIBROGEN, INC., priority 2012, dated 2016)
Read-outs that look alike come from different tables or passages of the source.

By UniProt entry, the sequences of proteins in these tests, tags left out. Where a name states a change or a piece, a line headed by the entry shows the natural chain unless it says otherwise.
UniProt Q9GZT9: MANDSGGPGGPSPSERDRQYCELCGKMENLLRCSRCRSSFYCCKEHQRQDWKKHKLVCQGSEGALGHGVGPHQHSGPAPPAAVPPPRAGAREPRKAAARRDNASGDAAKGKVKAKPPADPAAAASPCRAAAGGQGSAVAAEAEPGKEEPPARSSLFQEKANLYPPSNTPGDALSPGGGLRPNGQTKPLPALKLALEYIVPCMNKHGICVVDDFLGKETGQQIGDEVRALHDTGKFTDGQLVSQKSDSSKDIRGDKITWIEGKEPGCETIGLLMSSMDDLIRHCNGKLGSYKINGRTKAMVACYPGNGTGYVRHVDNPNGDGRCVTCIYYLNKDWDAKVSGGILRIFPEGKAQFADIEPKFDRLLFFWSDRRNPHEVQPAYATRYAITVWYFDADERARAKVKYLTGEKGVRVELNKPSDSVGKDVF
UniProt Q96KS0, whole entry: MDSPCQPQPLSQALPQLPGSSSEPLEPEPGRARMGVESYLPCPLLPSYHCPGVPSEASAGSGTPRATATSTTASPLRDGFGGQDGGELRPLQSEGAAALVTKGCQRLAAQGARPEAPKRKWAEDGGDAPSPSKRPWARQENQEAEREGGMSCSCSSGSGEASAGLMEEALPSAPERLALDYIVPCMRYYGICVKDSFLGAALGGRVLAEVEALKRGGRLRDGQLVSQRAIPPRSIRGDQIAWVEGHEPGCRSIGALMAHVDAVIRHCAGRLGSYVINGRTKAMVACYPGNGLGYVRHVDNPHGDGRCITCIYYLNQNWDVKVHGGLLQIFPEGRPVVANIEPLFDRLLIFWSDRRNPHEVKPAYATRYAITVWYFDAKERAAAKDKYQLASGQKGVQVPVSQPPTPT

Tests used:
[1] = target: PHD2 (EGLN1) (Homo sapiens (Human), UniProt Q9GZT9); assay: HIF-PH assay (14CO2 capture), PHD2 enzyme inhibition; format: biochemical
From the text: (§1) Ketoglutaric acid α-[1-^14C]-sodium salt, alpha-ketoglutaric acid sodium salt, and HPLC purified peptide may be obtained from commercial sources, e.g., Perkin-Elmer (Wellesley Mass.), Sigma-Aldrich, and SynPep Corp. (Dublin Calif.), respectively. Peptides for use in the assay may be fragments of HIFα as described above or as disclosed in International Publication WO 2005/118836, incorporated by reference herein. HIF-pH, e.g., PHD1 (EGLN2) or PHD2 (EGLN1), can be expressed in, e.g., insect Hi5 cells, and partially purified, e.g., through a SP ion exchange chromatography column. Enzyme activity is determined by capturing ^14CO2 using an assay described by Kivirikko and Myllyla (1982, Methods Enzymol. 82:245-304). Assay reactions contain 50 mM HEPES (pH 7.4), 100 μM α-ketoglutaric acid sodium salt, 0.30 mCi/mL ketoglutaric acid α-[1-^14C]-sodium salt, 40 μM FeSO4, 1 mM ascorbate, 1541.8 units/mL Catalase, with or without 50 μM peptide substrate and various concentrations of compound of the invention. Reactions are initiated by addition of HIF-PH enzyme.
(§2) The peptide-dependent percent turnover is calculated by subtracting percent turnover in the absence of peptide from percent turnover in the presence of substrate peptide. Percent inhibition and IC50 are calculated using peptide-dependent percent turnover at given inhibitor concentrations. […]

[2] = target: PHD1 (EGLN2) (Homo sapiens (Human), UniProt Q96KS0); assay: HIF-PH assay (14CO2 capture), PHD1 enzyme inhibition; format: biochemical
From the text: as §1, §2

N#Cc1nc(C(=O)N[C@@H](CC(=O)O)Cc2ccccc2)c(O)c2ccc(Oc3ccccc3)cc12 [Compound 68, (R)-3-[(1-Cyano-4-hydroxy-7-phenoxy-isoquinoline-3-carbonyl)-amino]-4-phenyl-butyric acid] showed an IC50 ([1]; Table 1, individual measurement) of 48.1 µM.
In the case of N#Cc1nc(C(=O)NCC(C(=O)O)c2ccccc2)c(O)c2ccc(Oc3ccccc3)cc12 (stereo not shown) [Compound 168, 3-[(1-Cyano-4-hydroxy-7-phenoxy-isoquinoline-3-carbonyl)-amino]-2-phenyl-propionic acid], the IC50 [2] is reported as 1.79 µM, the PHD2/PHD1 [2] is reported as 15 and the IC50 [1] is reported as 26.6 µM.
